Laboratory results taken from US20240238294A1 (published 2024).
Read-outs that look alike come from different tables or passages of the source.

Legend:
[1] = test system: H358 parental cells
[2] = test system: H358 parental cells; remark: listed apart in the source

COc1cc2nc(C)nc(N[C@H](C)c3cc(N)cc(C(F)(F)F)c3)c2cc1O[C@H]1CCOC1 [BI-3406]
growth inhibition [1]: modestly inhibited growth
growth inhibition [2]: modestly inhibited growth
